scFv variants of Ab-14 (light chain) against a SARS-CoV-2 spike peptide

Binding partner: SARS-CoV-2 spike HR2 peptide, sequence PDVDLGDISGINAS.

Parent scFv Ab-14: VH joined to VL by the linker GGGGSGGGGSGGGGS. Changes lie in the light chain CDRs alone.
VH: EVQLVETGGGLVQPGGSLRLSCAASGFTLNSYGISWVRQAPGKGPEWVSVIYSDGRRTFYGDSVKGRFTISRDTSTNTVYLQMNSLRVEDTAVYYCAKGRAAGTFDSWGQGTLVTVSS
VL: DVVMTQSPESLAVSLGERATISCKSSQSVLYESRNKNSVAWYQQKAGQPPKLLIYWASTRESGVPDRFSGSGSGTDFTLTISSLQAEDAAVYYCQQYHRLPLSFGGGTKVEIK

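The parent was found by panning a naive human phage display library on the peptide. This is the validation round: designs drawn from the data on random variants, tested in the same kind of assay. Their group label is 14L_Ctrl (Ctrl: baseline library sampled from a position-specific scoring matrix, with some repeated check sequences). The scFvs were displayed on barcoded MATa yeast, the peptide on MATalpha yeast. After mating in shaken culture at 30 °C for 16 h, diploids were selected and their barcode pairs sequenced. A regression on co-assayed BCL2-family reference pairs converts the normalised counts of each replicate to an apparent Kd. The assay was run in six technical replicates.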

Substitutions are numbered in sequence along the VL above, starting at 1 (not Kabat). Values are log10 of the apparent Kd in nM; lower means stronger binding. A pair that was not seen in that replicate is written "n.d."; this usually means weak binding, but a binder can also be missed. In the paper, a design with two or fewer of six values counts as a poor binder.

| changes | log10 Kd, replicates | empty controls |
|---|---|---|
| S26D/W56N | 0.07 0.24 0.11 -0.31 -0.18 0.23 | 2/18 (2.29) |
| S25N/S33E/A57D | n.d. n.d. n.d. n.d. n.d. n.d. | 0/18 |
| R34M/N35F/S58T/T59E/S62A | 1.39 1.34 1.29 1.04 1.77 1.12 | 1/18 (2.77) |
| S28T/L30A/W56R | n.d. 1.30 1.77 2.14 2.32 2.39 | 0/18 |
| S25M/R34A/R99C | n.d. n.d. 2.01 n.d. 2.16 n.d. | 1/18 (2.73) |
| S25H/Y31G/A40W/W56Q | n.d. n.d. n.d. n.d. n.d. n.d. | 0/18 |
| S33D/K36F/S38N | 1.43 1.21 0.61 0.98 1.00 1.29 | 0/18 |
| S25L/S26I/W56N | -0.66 -0.63 -1.00 -1.06 -0.89 -0.09 | 0/18 |
| S26Q/L30I/R34T | 1.52 n.d. 2.02 3.64 2.19 2.16 | 0/18 |
| S25V/Q27N/R34P | 0.65 0.86 0.93 0.49 1.30 0.83 | 0/18 |
| S25V/L30D/S33Q | 1.96 2.09 0.97 1.91 1.71 1.56 | 3/18 (2.31) |
| S28K/R34N/W56D | 0.48 0.32 0.20 0.21 0.35 0.43 | 1/18 (2.69) |
| S28A | 2.37 n.d. n.d. 2.67 3.11 n.d. | 1/18 (4.38) |
| S26Q/W56Y/Q96S | 1.64 3.01 1.94 1.71 1.72 2.30 | 1/18 (2.70) |
| S25V/S26Q/S62C | 0.93 1.01 1.51 1.23 1.20 1.71 | 0/18 |
| S26E/W56H | 0.51 0.56 0.11 0.24 0.20 0.61 | 1/18 (2.80) |
| A57G/H98D | 1.99 1.94 1.90 2.37 1.47 2.39 | 1/18 (2.43) |
| S25F/S33A/W56G/E61A/S62D | 0.02 -0.02 -0.05 -0.10 -0.07 0.11 | 3/18 (2.76) |
| R34E/Q95F | n.d. n.d. n.d. n.d. n.d. n.d. | 0/18 |
| K24M/V29M/Y97R | n.d. n.d. 1.56 n.d. n.d. 2.22 | 0/18 |
| Y31R/R34S/W56Y | 1.66 1.19 1.14 1.42 1.25 1.63 | 3/18 (3.54) |
| R34N/N37H | 1.68 0.99 2.15 1.18 1.74 1.69 | 0/18 |
| S33Y/E61I/L100S | n.d. n.d. n.d. n.d. n.d. n.d. | 0/18 |
| S25M/S103E | 0.67 0.14 0.81 0.59 1.11 0.79 | 0/18 |
| S25I/V29P/Y97H/L102Y | n.d. n.d. 2.63 3.23 n.d. n.d. | 0/18 |
| Y31G/W56K/S58D/S103C | 1.32 1.39 1.09 0.90 1.62 1.20 | 0/18 |
| L30Q/N35D/S38N/H98A | n.d. 3.04 2.59 1.95 1.71 1.47 | 0/18 |
| S25D/S26I/Q27K/R34N/S62D/P101Y | n.d. n.d. n.d. n.d. n.d. n.d. | 0/18 |
| S25T/R99P | n.d. n.d. n.d. n.d. n.d. n.d. | 0/18 |
| Q27S/S62D | n.d. 1.62 1.99 1.44 1.09 n.d. | 0/18 |
| S25L/Y31G/R34Q/W56R/L100F | 1.54 1.57 1.18 1.43 1.89 1.62 | 0/18 |
| S25V/V29H/Y31G/W56N/A57G | 0.40 0.28 -0.29 0.32 -0.07 0.34 | 0/18 |
| W56D/S58F/T59V | 0.31 0.07 0.16 0.18 0.23 0.00 | 0/18 |
| S25H/S26L/S33T/H98K/L100W/S103I | n.d. 1.85 2.68 1.60 2.14 2.33 | 2/18 (2.05) |
| K24Y/Y31P/E32D/R34Y/K36H/W56D/T59E/S62F | 0.26 0.82 0.46 0.58 1.05 1.63 | 0/18 |
| N35A/T59Q | n.d. n.d. n.d. n.d. n.d. n.d. | 0/18 |
| S25I/S26D/W56D | -0.32 -0.37 -0.39 -0.51 -0.56 -0.28 | 0/18 |
| E61R | 2.32 2.33 1.79 3.39 n.d. n.d. | 1/18 (1.85) |
| S26E/L30D/R34A/P101Y/S103M | n.d. n.d. n.d. n.d. n.d. n.d. | 0/18 |
| S33N/S38D/W56G | n.d. n.d. n.d. n.d. 2.11 n.d. | 0/18 |
| S25F/L30F/R34G/K36G/S38P/W56D/R99M | 1.44 0.54 0.57 1.08 0.87 1.01 | 2/18 (3.00) |

Top 4 of the variants detected in all replicates, tightest first:

| changes | log10 Kd, replicates | empty controls |
|---|---|---|
| S25L/S26I/W56N | -0.66 -0.63 -1.00 -1.06 -0.89 -0.09 | 0/18 |
| S25I/S26D/W56D | -0.32 -0.37 -0.39 -0.51 -0.56 -0.28 | 0/18 |
| S25F/S33A/W56G/E61A/S62D | 0.02 -0.02 -0.05 -0.10 -0.07 0.11 | 3/18 (2.76) |
| S26D/W56N | 0.07 0.24 0.11 -0.31 -0.18 0.23 | 2/18 (2.29) |

As a blank, each scFv also met three strains without target: over all light chain designs, 4% of these pairings were detected, typically at 2.64 and seldom below 1.59. The control count says in how many pairings with the empty strains this scFv gave a signal, with their mean in brackets. A sequence measured in both rounds can read differently, since the two assays cover different ranges.

Values reported by Li et al. 2023, doi:10.1038/s41467-023-39022-2 (FLAb copy).